Experimental data published in ChEMBL document CHEMBL4414557, “Labdanes, Withanolides, and Other Constituents from Physalis nicandroides” (J Nat Prod, 2019).

By UniProt entry, the sequences of proteins in these tests, tags left out. Where a name states a change or a piece, a line headed by the entry shows the natural chain unless it says otherwise.
UniProt O42275: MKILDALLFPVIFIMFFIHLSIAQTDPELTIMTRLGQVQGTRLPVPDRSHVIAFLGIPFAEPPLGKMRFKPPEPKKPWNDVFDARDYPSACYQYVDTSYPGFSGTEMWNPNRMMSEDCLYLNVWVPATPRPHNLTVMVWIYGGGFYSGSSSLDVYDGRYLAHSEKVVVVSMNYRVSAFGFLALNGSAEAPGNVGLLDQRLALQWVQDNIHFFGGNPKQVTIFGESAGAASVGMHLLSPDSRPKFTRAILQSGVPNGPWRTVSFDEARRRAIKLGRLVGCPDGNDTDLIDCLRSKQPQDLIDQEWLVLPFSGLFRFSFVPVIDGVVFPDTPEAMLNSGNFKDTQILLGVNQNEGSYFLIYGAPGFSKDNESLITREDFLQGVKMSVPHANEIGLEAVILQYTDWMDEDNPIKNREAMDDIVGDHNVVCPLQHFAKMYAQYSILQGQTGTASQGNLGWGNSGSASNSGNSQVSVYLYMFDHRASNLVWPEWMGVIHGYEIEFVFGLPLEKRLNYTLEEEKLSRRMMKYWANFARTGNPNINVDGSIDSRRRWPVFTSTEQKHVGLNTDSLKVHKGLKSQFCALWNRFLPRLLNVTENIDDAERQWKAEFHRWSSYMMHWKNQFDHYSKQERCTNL

Molecular target: Acetylcholinesterase (Electrophorus electricus, UniProt O42275)
Experiment: Inhibition of Electrophorus electricus AChE using acetylthiocholine iodide as substrate preincubated for 30 mins followed by substrate addition and measured after 5 mins by Ellman's method

## CNC(=O)Oc1ccc2c(c1)[C@]1(C)CCN(C)[C@@H]1N2C [PHYSOSTIGMINE]
  IC50: 3 nM
